# Source: patent US20130052137A1, “PARA AMINO BENZOIC ACID BASED NANOTUBES” (priority 2009, published 2013)
# Experiment: Distribution of nanotubes in organs after oral ingestion (confocal fluorescence, Metamorph gray value)
# Settings: dye in yeast paste, third instar larvae
substance,measurement,value
Rhodamine B,distribution of raw dye in internal organs,only accumulated in the gut cells
